Results published in PubChem BioAssay AID771 (SRMLSC, 2007).
This is a selection; strong and weak results do not stand in their true shares. The source made the active and inactive calls.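 Rule for the calls: active = growth inhibition above 90%, meaning viable cell count by imaging cut by more than 90% versus vehicle controls; inactive = growth inhibition below 90%.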

Test: HT29 colon tumor cell growth inhibition, primary screen, imaging, high content imaging, 48 h, CellTiter-Glo (AID 771)
Details: HCS imaging cell count, at 10 µM, active compounds read high

Compound	growth inhibition
CCN(CC)CC(O)COC(=O)C(O)(c1ccccc1)C1CCCCC1 (stereo unspecified)	inactive: 41.1%
